The target in the assay is Recombinant human cathepsin S (CatS) (Homo sapiens, UniProt P25774). Briefly: biochemical.

Sequences of proteins named here, by UniProt entry; tags and fusion partners are left off. Residues count along the entry.
UniProt P25774, 115-331: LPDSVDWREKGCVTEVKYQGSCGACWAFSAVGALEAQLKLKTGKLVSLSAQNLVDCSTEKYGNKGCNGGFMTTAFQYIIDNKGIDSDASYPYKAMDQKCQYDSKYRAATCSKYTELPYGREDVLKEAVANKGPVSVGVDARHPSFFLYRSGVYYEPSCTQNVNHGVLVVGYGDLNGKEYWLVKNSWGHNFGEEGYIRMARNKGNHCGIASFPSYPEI

The structures appear in SMILES notation.

As a reminder, the IC50 is the midpoint of a concentration-inhibition curve. Consider `CNC(=O)C(=O)N1CCc2c(c(-c3ccc(C(F)(F)F)c(SCCN4CCC(F)CC4)c3)nn2C[C@@H](O)CN2CCCCC2)C1` [Example 432, 2-{3-[3-{[2-(4-Fluoropiperidin-1-yl)ethyl]sulfanyl}-4-(trifluoromethyl)phenyl]-1-[(2S)-2-hydroxy-3-piperidin-1-ylpropyl]-1,4,6,7-tetrahydro-5H-pyrazolo[4,3-c]pyridin-5-yl}-N-methyl-2-oxoacetamide], for which the IC50 came out at 270 nM.

Regarding `Cc1noc(C2CCN(CC(O)Cn3nc(-c4ccc(C(F)(F)F)c(SCCN5CCOCC5)c4)c4c3CCN(S(C)(=O)=O)C4)CC2)n1` (stereo not drawn) [Example 681, 1-[4-(3-Methyl-1,2,4-oxadiazol-5-yl)piperidin-1-yl]-3-[5-(methylsulfonyl)-3-{3-[(2-morpholin-4-ylethyl)sulfanyl]-4-(trifluoromethyl)phenyl}-4,5,6,7-tetrahydro-1H-pyrazolo[4,3-c]pyridin-1-yl]propan-2-ol], the IC50 was 80 nM.

`CS(=O)(=O)N1CCc2c(c(-c3ccc(C(F)(F)F)c(SCC(=O)N4CCCCCC4)c3)nn2CCCN2CCC(N3CCCC3=O)CC2)C1` [Example 95, 1-[1-(3-{3-[3-(2-Azepan-1-yl-2-oxo-ethylsulfanyl)-4-trifluoromethyl-phenyl]-5-methanesulfonyl-4,5,6,7-tetrahydro-pyrazolo[4,3-c]pyridin-1-yl}-propyl)-piperidin-4-yl]-pyrrolidin-2-one]: the IC50 was determined as 70 nM.

In the case of `O=C(CSc1cc(-c2nn(CC(O)CN3CCC(N4CCCC4)CC3)c3c2CN(C(=O)CO)CC3)ccc1C(F)(F)F)N1CCOCC1` (stereo not drawn) [Example 628, 1-[5-(Hydroxyacetyl)-3-{3-[(2-morpholin-4-yl-2-oxoethyl)sulfanyl]-4-(trifluoromethyl)phenyl}-4,5,6,7-tetrahydro-1H-pyrazolo[4,3-c]pyridin-1-yl]-3-(4-pyrrolidin-1-ylpiperidin-1-yl)propan-2-ol], the IC50 stood at 190 nM.

Turning to `CCOC(=O)NC1CCN(CCSc2cc(-c3nn(CCCN4CCC(N5CCCC5=O)CC4)c4c3CN(S(C)(=O)=O)CC4)ccc2C(F)(F)F)CC1` [Example 874, Ethyl {1-[2-({5-[5-(methylsulfonyl)-1-{3-[4-(2-oxopyrrolidin-1-yl)piperidin-1-yl]propyl}-4,5,6,7-tetrahydro-1H-pyrazolo[4,3-c]pyridin-3-yl]-2-(trifluoromethyl)phenyl}sulfanyl)ethyl]piperidin-4-yl}carbamate], the half-inhibitory concentration (IC50) is 630 nM.

As to `O=C(CO)N1CCc2c(c(-c3ccc(C(F)(F)F)c(SCCN4CCCCC4)c3)nn2CC(O)CN2CCCCC2)C1` (stereo not drawn) [Example 239, 1-[5-(Hydroxyacetyl)-3-{3-[(2-piperidin-1-ylethyl)sulfanyl]-4-(trifluoromethyl)phenyl}-4,5,6,7-tetrahydro-1H-pyrazolo[4,3-c]pyridin-1-yl]-3-piperidin-1-ylpropan-2-ol], the IC50 worked out at 280 nM.

For the molecule `CCOC(=O)NC1CCN(CC(O)Cn2nc(-c3ccc(C(F)(F)F)c(SCCN4CCCC4)c3)c3c2CCN(S(C)(=O)=O)C3)CC1` (stereo not drawn) [Example 651, Ethyl (1-{2-hydroxy-3-[5-(methylsulfonyl)-3-{3-[(2-pyrrolidin-1-ylethyl)sulfanyl]-4-(trifluoromethyl)phenyl}-4,5,6,7-tetrahydro-1H-pyrazolo[4,3-c]pyridin-1-yl]propyl}piperidin-4-yl)carbamate], the IC50 was 95 nM.

As to `CS(=O)(=O)N1CCc2c(c(-c3ccc(C(F)(F)F)c(SCCN4CCCC(F)(F)C4)c3)nn2C[C@@H](O)CN2CCCCC2)C1` [Example 208, (2S)-1-{3-[3-{[2-(3,3-Difluoropiperidin-1-yl)ethyl]sulfanyl}-4-(trifluoromethyl)phenyl]-5-(methylsulfonyl)-4,5,6,7-tetrahydro-1H-pyrazolo[4,3-c]pyridin-1-yl}-3-piperidin-1-ylpropan-2-ol], the IC50 is 110 nM.

Take `CS(=O)(=O)N1CCc2c(c(-c3ccc(C(F)(F)F)c(SCCN4CCC(F)CC4)c3)nn2C[C@H](O)CN2CCCCC2)C1` [Example 198, (2R)-1-{3-[3-{[2-(4-Fluoropiperidin-1-yl)ethyl]sulfanyl}-4-(trifluoromethyl)phenyl]-5-(methylsulfonyl)-4,5,6,7-tetrahydro-1H-pyrazolo[4,3-c]pyridin-1-yl}-3-piperidin-1-ylpropan-2-ol]: the IC50 came out at 400 nM.

Take `CS(=O)(=O)N1CCc2c(c(-c3ccc(C(F)(F)F)c(SCCN4CCC(F)(F)CC4)c3)nn2C[C@@H](O)CN2CCCCCC2)C1` [Example 575, (2S)-1-Azepan-1-yl-3-{3-[3-{[2-(4,4-difluoropiperidin-1-yl)ethyl]sulfanyl}-4-(trifluoromethyl)phenyl]-5-(methylsulfonyl)-4,5,6,7-tetrahydro-1H-pyrazolo[4,3-c]pyridin-1-yl}propan-2-ol]: the IC50 was found to be 190 nM.

For `CS(=O)(=O)N1CCc2c(c(-c3ccc(C(F)(F)F)c(SCCN4CCO[C@@H](CO)C4)c3)nn2C[C@@H](O)CN2CCC(N3CCCC3=O)CC2)C1` [Example 196, 1-{1-[(2S)-2-Hydroxy-3-{3-[3-({2-[(2R)-2-(hydroxymethyl)morpholin-4-yl]ethyl}sulfanyl)-4-(trifluoromethyl)phenyl]-5-(methylsulfonyl)-4,5,6,7-tetrahydro-1H-pyrazolo[4,3-c]pyridin-1-yl}propyl]piperidin-4-yl}pyrrolidin-2-one], the IC50 turned out to be 50 nM.

As for `CS(=O)(=O)N1CCc2c(c(-c3ccc(C(F)(F)F)c(SCCN4CCC(F)CC4)c3)nn2C[C@H](O)CN2CCN(c3ccccc3O)CC2)C1` [Example 795, 2-{4-[(2R)-3-{3-[3-{[2-(4-Fluoropiperidin-1-yl)ethyl]sulfanyl}-4-(trifluoromethyl)phenyl]-5-(methylsulfonyl)-4,5,6,7-tetrahydro-1H-pyrazolo[4,3-c]pyridin-1-yl}-2-hydroxypropyl]piperazin-1-yl}phenol], the IC50 was determined as 30 nM.

Regarding `CS(=O)(=O)N1CCc2c(c(-c3ccc(C(F)(F)F)c(SCCN4CCCC(c5ccccc5)C4)c3)nn2CCCN2CCC(N3CCCC3=O)CC2)C1` (stereo not drawn) [Example 864, 1-[1-(3-{5-(Methylsulfonyl)-3-[3-{[2-(3-phenylpiperidin-1-yl)ethyl]sulfanyl}-4-(trifluoromethyl)phenyl]-4,5,6,7-tetrahydro-1H-pyrazolo[4,3-c]pyridin-1-yl}propyl)piperidin-4-yl]pyrrolidin-2-one], the IC50 came to 330 nM.

In the case of `CS(=O)(=O)N1CCc2c(c(-c3ccc(C(F)(F)F)c(SCCN4CCC(F)CC4)c3)nn2C[C@H](O)CN2CCN(c3ccccc3C#N)CC2)C1` [Example 827, 2-{4-[(2R)-3-{3-[3-{[2-(4-Fluoropiperidin-1-yl)ethyl]sulfanyl}-4-(trifluoromethyl)phenyl]-5-(methylsulfonyl)-4,5,6,7-tetrahydro-1H-pyrazolo[4,3-c]pyridin-1-yl}-2-hydroxypropyl]piperazin-1-yl}benzonitrile], the concentration for half-maximal inhibition (IC50) is 15 nM.

Turning to `CS(=O)(=O)N1CCc2c(c(-c3ccc(C(F)(F)F)c(SCCN4CCCC4)c3)nn2CCCN2CCCCC2)C1` [Example 312, 5-(Methylsulfonyl)-1-(3-piperidin-1-ylpropyl)-3-{3-[(2-pyrrolidin-1-ylethyl)sulfanyl]-4-(trifluoromethyl)phenyl}-4,5,6,7-tetrahydro-1H-pyrazolo[4,3-c]pyridine], the half-maximal inhibitory concentration (IC50) came out at 950 nM.

In the case of `OC(CN1CCN(c2ccc(F)cc2)CC1)Cn1nc(-c2ccc(C(F)(F)F)c(SCCN3CCC(F)(F)C3)c2)c2c1CCNC2` (stereo not drawn) [Example 521, 1-{3-[3-{[2-(3,3-Difluoropyrrolidin-1-yl)ethyl]sulfanyl}-4-(trifluoromethyl)phenyl]-4,5,6,7-tetrahydro-1H-pyrazolo[4,3-c]pyridin-1-yl}-3-[4-(4-fluorophenyl)piperazin-1-yl]propan-2-ol], the IC50 was found to be 1130 nM.

Take `O=C(CO)N1CCc2c(c(-c3ccc(C(F)(F)F)c(SCCN4CCCC(O)C4)c3)nn2CC(O)CN2CCC(N3CCCC3=O)CC2)C1` (stereo not drawn) [Example 671, 1-[1-(2-Hydroxy-3-{5-(hydroxyacetyl)-3-[3-{[2-(3-hydroxypiperidin-1-yl)ethyl]sulfanyl}-4-(trifluoromethyl)phenyl]-4,5,6,7-tetrahydro-1H-pyrazolo[4,3-c]pyridin-1-yl}propyl)piperidin-4-yl]pyrrolidin-2-one]: the IC50 was 120 nM.

Turning to `N#Cc1cccc(C2CCN(C[C@H](O)Cn3nc(-c4ccc(C(F)(F)F)c(SCCN5CCC(F)CC5)c4)c4c3CCNC4)CC2)c1` [Example 536, 3-{1-[(2S)-3-{3-[3-{[2-(4-Fluoropiperidin-1-yl)ethyl]sulfanyl}-4-(trifluoromethyl)phenyl]-4,5,6,7-tetrahydro-1H-pyrazolo[4,3-c]pyridin-1-yl}-2-hydroxypropyl]piperidin-4-yl}benzonitrile], the IC50 was 200 nM.

As for `CS(=O)(=O)N1CCc2c(c(-c3ccc(C(F)(F)F)c(SCCN4CCCC(CO)C4)c3)nn2CC(O)CN2CCC(c3n[nH]c(=O)[nH]3)CC2)C1` (stereo not drawn) [Example 804, 5-[1-(2-Hydroxy-3-{3-[3-({2-[3-(hydroxymethyl)piperidin-1-yl]ethyl}sulfanyl)-4-(trifluoromethyl)phenyl]-5-(methylsulfonyl)-4,5,6,7-tetrahydro-1H-pyrazolo[4,3-c]pyridin-1-yl}propyl)piperidin-4-yl]-2,4-dihydro-3H-1,2,4-triazol-3-one], the IC50 was determined as 190 nM.

As for `CS(=O)(=O)N1CCc2c(c(-c3ccc(C(F)(F)F)c(SCCN4CCOC(CO)C4)c3)nn2CC(O)CN2CCC(C(=O)N3CCCC3)CC2)C1` (stereo not drawn) [Example 850, 1-{3-[3-({2-[2-(Hydroxymethyl)morpholin-4-yl]ethyl}sulfanyl)-4-(trifluoromethyl)phenyl]-5-(methylsulfonyl)-4,5,6,7-tetrahydro-1H-pyrazolo[4,3-c]pyridin-1-yl}-3-[4-(pyrrolidin-1-ylcarbonyl)piperidin-1-yl]propan-2-ol], the IC50 was 100 nM.

On to `CS(=O)(=O)N1CCc2c(c(-c3ccc(Cl)c(SCCc4ccccc4)c3)nn2CCCN2CCOCC2)C1` [Example 129, 3-(4-Chloro-3-phenethylsulfanyl-phenyl)-5-methanesulfonyl-1-(3-morpholin-4-yl-propyl)-4,5,6,7-tetrahydro-1H-pyrazolo[4,3-c]pyridine], for which the IC50 came out at 1470 nM.

For the origin of these results see patent US20090099157A1, “TETRAHYDRO-PYRAZOLO-PYRIDINE THIOETHER MODULATORS OF CATHEPSIN S” (priority 2007, published 2009).
